Source: patent US20220251182A1, “AGENTS WHICH INHIBIT GADS DIMERIZATION AND METHODS OF USE THEREOF” (Technion Research & Development Foundation Limited, priority 2017, published 2022)

What was measured:
[1] = target: pY171-LAT peptide (singly phosphorylated on Y171); experiment: ITC at 25 C, peptide injected into monomeric MBP-Gads SH2; KD = 1/KA, 1:1 model
[2] = target: pY171-LAT peptide (singly phosphorylated on Y171); experiment: isothermal titration calorimetry, 1:1 binding model (Affinimeter), linked-parameter analysis of three repeats

Q: How did the Kd [1] turn out when “MBP-Gads SH2 F92D (from UniProt P0AEX9 27-392)” was run?
A: The Kd was 470 nM.

Q: What about the H [2] of the same substance?
A: The H was -11600 cal/mol.
